# Apparent affinities of Ab-14 variants for a coronavirus HR2 peptide

Antigen: PDVDLGDISGINAS, a 14-residue peptide of the SARS-CoV-2 spike HR2 region.

Parent: Ab-14, a human scFv built as VH, a (GGGGS)3 linker, VL. Only the CDRs of the light chain vary.
VH: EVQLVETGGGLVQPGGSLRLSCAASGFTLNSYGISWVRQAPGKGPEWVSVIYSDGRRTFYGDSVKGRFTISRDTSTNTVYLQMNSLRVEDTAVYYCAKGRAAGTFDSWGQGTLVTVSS
VL: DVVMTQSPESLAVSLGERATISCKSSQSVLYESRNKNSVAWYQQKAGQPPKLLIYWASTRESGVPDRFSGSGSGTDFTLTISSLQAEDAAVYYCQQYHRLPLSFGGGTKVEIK

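The parent was found by panning a naive human phage display library on the peptide. The variants were designed computationally from a first round of random CDR variants and then made and measured. Group labels follow the data file (En: ensemble of fine-tuned language models; GP: Gaussian process model; HC: hill climbing; Gen: genetic algorithm; Gibbs: Gibbs sampling; a sequence that several methods proposed may carry one label only). The scFvs were displayed on barcoded MATa yeast, the peptide on MATalpha yeast. The frequency of each diploid, read from paired DNA barcodes, reflects how well the two displayed proteins bind. Read counts were normalised to the haploid input and turned into Kd by a linear fit to BCL2-family pairs of known affinity, for each replicate. Each pool was mated in six replicate cultures.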

Each variant is given by its three light chain CDRs, as the data file delimits them; those of the parent are KSSQSVLYESRNKNSVA, WASTRES, QQYHRLPLS.
Variants here have more than six changes.
Values are log10 of the apparent Kd in nM; lower means stronger binding.
Replicates are averaged; those with no signal do not enter the mean.
"nd" means that the variant was in the library but no mating with the target was seen in any replicate; the authors take this as a sign of poor binding, and no number exists.
Background: pairings of all light chain designs with three empty control strains gave a value in 4% of cases (median 2.64, 5th percentile 1.59). Values in that range, when seen in few replicates, are hard to tell from nonspecific mating. Also given: how often the same scFv was detected with the empty control strains.
The authors' rule: three or more of the six replicates give a measured affinity, fewer mean a poor binder.
The range of this assay differs from that of the first round, and the authors advise against merging the two.

CDR-L1	CDR-L2	CDR-L3	group	log10 Kd (nM), mean	replicates with signal	control signals
QITQVQQYDAPNTYNVA	DARVSGR	QQYSQLPLT	En_Gibbs	0.79	6 of 6	0 of 18
KLREVQHVETKQKNNVA	DNSTRES	QDYYRLPLS	En_HC	0.74	6 of 6	0 of 18
SLVQEKSVGDANMGNIA	AADQLSV	QQYNRLPLS	En_Gibbs	0.41	6 of 6	1 of 18
KVSIFMLTMDNAWSSIA	NMAAERT	QQYQRLPLS	En_Gibbs	nd	0 of 6	0 of 18
KLRQSTVIESFNKNNVA	EMTTREY	QSYDRLPLS	En_HC	2.33	6 of 6	0 of 18
KIGMTLNQLMHTKNNVA	DLVTREN	QQYHRLPLS	En_Gen	-0.04	6 of 6	0 of 18
IVSQLMLWGKSAKNSIA	EAVTRLN	QQYDRLPLE	En_Gen	3.15	6 of 6	1 of 18
KLWAYFQGLEQYMQNVA	DGSYVST	QQYDRLPLS	En_Gibbs	1.55	2 of 6	0 of 18
KLMQGWLMESRNKNSVA	NASMRLD	QQYHRLPLS	GP_Gibbs	0.48	6 of 6	1 of 18
SLAESSHMESRNKNSVA	DNSTRES	QHYHRLPLS	En_HC	1.40	5 of 6	2 of 18
KFSQMANQFSVSMNAVA	EMSTRES	QQYNRLPLA	En_Gen	nd	0 of 6	0 of 18
KITGMWTFENRNKNSIA	EESTRED	QSYHRLPLS	En_HC	0.81	6 of 6	2 of 18
KIDQSELEESRNKNSVA	WATVREV	QQYHRLPLS	GP_Gibbs	1.53	6 of 6	0 of 18
KLSMSQLYEWRNFNSVA	NASTREE	QQYHRLPLS	GP_Gibbs	-0.17	6 of 6	5 of 18
KLSATYRYESQNKNSIA	EMTTRER	QCYHRLPLS	En_HC	1.68	1 of 6	0 of 18
SVQVYTENFMERGQNIA	DASAKTV	QQYDRLPLA	En_Gibbs	0.35	5 of 6	0 of 18
MIGQMMGWESNKIHSVA	QANLRVE	QQYDRLPLE	En_Gen	0.93	1 of 6	0 of 18
KLYQSMGYLSHNKNSIA	DMERREN	QQYHRLPLS	En_HC	0.20	6 of 6	0 of 18
ALNQKGFALHGDRQSIA	HSDTRLA	QQYYRLPLA	En_Gibbs	0.66	6 of 6	1 of 18
TISYSALMTGMNRNSVA	QAEERLE	QQYHRLPLS	En_HC	1.79	5 of 6	1 of 18
TLGDVTRMESNKKNSIA	DMSNRAD	QQYHRLPLE	En_HC	0.17	6 of 6	2 of 18
TLYQSMGYLSHNKNSIA	DMSRREN	QQYHRLPLS	En_HC	0.55	6 of 6	1 of 18
HMSMITLQGMRHRNSVA	QMTTREN	QQYDHLPLS	En_Gen	1.94	6 of 6	0 of 18
HLGQEGYNQTYAMDSVA	DQNTALE	QHYSRLPLT	En_Gibbs	nd	0 of 6	0 of 18
MISNVMNTLTREGNNVA	DLQEREK	QQYFRLPLS	En_Gen	0.55	6 of 6	0 of 18
TIGSTLMYGMRNRSNVA	EVSERLN	QQYDRLPLM	En_Gen	1.99	6 of 6	0 of 18
KLEQSVMLESRNVNAVA	SASQREL	QQYHRLPLS	GP_Gibbs	-0.18	6 of 6	0 of 18
KLRQMTLTEGYFKNNVA	QASTREN	QSYHRLPLS	En_HC	1.39	5 of 6	0 of 18
KISEVMNFAQFNKQSIA	EVSTRSQ	QSYNRLPLS	En_Gen	1.50	5 of 6	0 of 18
KLTSTMRFEQKKKNNIA	EVSTRSK	QQYNRLPLA	En_Gen	2.03	6 of 6	3 of 18
HVSNLLTDEMVREYNIA	ETSHVEE	QQYERLPLI	En_Gibbs	1.27	6 of 6	1 of 18
MLALPQKELGYAKKAIA	DGSIRAG	QQYHLLPLS	En_Gibbs	0.12	6 of 6	0 of 18
HLGDTVMQGSYYKNSVA	QESTRAD	QQYHRLPLS	En_HC	0.19	6 of 6	1 of 18
RINIAGMTVDEHYSNVA	AQRLTSE	QQYFRLPLA	En_Gibbs	2.06	5 of 6	1 of 18
FLAYALDQDGLAKNNIA	QVNLLEN	QQYERLPLA	En_Gibbs	1.52	6 of 6	2 of 18
SMAYFQHFGNQQEKAIA	EVATREQ	QQYFRLPLT	En_Gibbs	0.58	6 of 6	0 of 18
KVSEFMRGLMQRKDSIA	DNVTRNN	QQYDRLPLS	En_Gen	2.60	2 of 6	0 of 18
KVNGLMNIEQMNSKSVA	HSSTREN	QQYHRLPLS	En_HC	0.54	6 of 6	2 of 18
ILYQSQLYESRNKNSVA	QASQREM	QQYHRLPLS	GP_Gibbs	0.16	6 of 6	2 of 18
KLQQSFLYEERNPNSVA	NASKREL	QQYHRLPLS	GP_Gibbs	-0.26	6 of 6	2 of 18
HMSALTLMGSRQRNSVA	QMTTREN	QQYDRLPLV	En_Gen	0.61	6 of 6	0 of 18
MISQVMNTLTRHGNNVA	DLAEREA	QQYFRLPLS	En_Gen	1.54	6 of 6	0 of 18
MAYGGDMLESATRNSVA	NAETRED	QDYHRLPLS	En_HC	0.87	6 of 6	0 of 18
VLGGQWGLGTTNNSAIA	NDSETML	QQYWRLPFM	En_Gibbs	1.78	6 of 6	2 of 18
HVSESVFLQSKMRNSVA	ENSTRES	QQYDRLPLS	En_HC	1.97	6 of 6	1 of 18
KLYEMVASTMMNIRNVA	DNSTREA	QQYHRLPLS	En_Gen	0.96	5 of 6	1 of 18
HYENISEPMGRYDQNIA	NVSLREH	QQYFMLPLS	En_Gibbs	0.28	6 of 6	1 of 18
TLSHSTDVESVHKNSIA	DLMTRES	QQYDRLPLS	En_HC	0.49	6 of 6	0 of 18
KISFQYRYEQLAKNSIA	EVQTRLK	QQYHRLPLS	En_HC	1.12	6 of 6	0 of 18
KLLQTVMNETRNKNNVA	HMTTRED	QQYHRLPLI	En_HC	1.39	6 of 6	1 of 18
RITILSDYYNENRNAIA	QTSLKAH	QQYQMLPLT	En_Gibbs	0.53	6 of 6	0 of 18
KWQQSDDMESRNHNSVA	HASTRCS	QQYHRLPLS	GP_Gibbs	0.65	6 of 6	1 of 18
TISQMTSLFSQTINNVA	EVSTREQ	QQYDRLPLI	En_Gen	0.95	6 of 6	0 of 18
NISQMFYMETKNVNNVA	QTSTRES	QDYHRLPLS	En_HC	-0.01	6 of 6	1 of 18
KLSMSVDYMSATHSSVA	QTSTREE	QQYHRLPLM	En_HC	0.59	6 of 6	1 of 18
KLQNSYEYESRMMNSVA	NASTRLE	QQYHRLPLS	GP_Gibbs	0.17	6 of 6	0 of 18
KESQSELYESANKNSVA	NAMQRMS	QQYHRLPLS	GP_Gibbs	0.06	6 of 6	0 of 18
MFSQLTYTGSRARNAVA	QASTRVN	QQYHHLPLI	En_HC	1.47	6 of 6	1 of 18
KISMLINTTFEESNNVA	EMATREK	QQYNRLPLS	En_Gen	0.73	6 of 6	0 of 18
ALSQSMDMTSRNKNSVA	DLTTRGN	QQYHRLPLS	En_HC	0.19	6 of 6	1 of 18
TLGQSTLMESRNRNNVA	QMSTREK	QQYDRLPLS	En_HC	0.60	6 of 6	0 of 18
MLDMHLSYGDNLQNRIA	EANHLET	QQYAHLPLG	En_Gibbs	0.81	6 of 6	2 of 18
TIGSTLMYGMANRSNVA	EVSERLN	QQYDRLPLL	En_Gen	2.26	6 of 6	3 of 18
MISQLYNMGQFAINSVA	QASLRNE	QQYDHLPLM	En_Gen	0.96	6 of 6	2 of 18
MISQLMNMGTFAINSVA	QASIRNA	QQYDRLPLI	En_Gen	1.59	4 of 6	1 of 18
KLSQSDLYESRNSNNVA	MASTRMV	QQYHRLPLS	GP_Gibbs	0.00	6 of 6	0 of 18
KIEQLVFPYGPSWHSIA	NASTLLA	QQYYMLPLM	En_Gibbs	1.36	6 of 6	1 of 18
TISQMTSLFSQSINNVA	EVSTRME	QQYDRLPLA	En_Gen	1.11	6 of 6	0 of 18
KLSMVTGHLSVEKNNVA	EMETREN	QQYDRLPLS	En_Gen	0.77	6 of 6	0 of 18
KWSQSWLMESMNSASVA	HASQRES	QQYHRLPLS	GP_Gibbs	0.57	6 of 6	0 of 18
MIAESVGYQSRNKNSVA	DNSTRES	QCYDRLPLS	En_HC	1.25	6 of 6	1 of 18
KLWAYTQGLERNMQNIA	DGIYRVT	QQYDRLPLS	En_Gibbs	0.17	6 of 6	0 of 18
KISMLINQTFQASNNVA	EMVTREK	QQYHRLPLS	En_Gen	0.95	6 of 6	0 of 18
KVSQEQDYQSRNKNSVA	DASQREE	QQYHRLPLS	GP_Gibbs	-0.17	6 of 6	3 of 18
MLSDTVMQGSYSRNSVA	QESTRAE	QQYHHLPLS	En_HC	0.34	6 of 6	4 of 18
HISMMVGTKGYNKQSVA	NAETRSD	QQYHRLPLS	En_HC	0.18	6 of 6	2 of 18
QIDSFYQHGTDQKKAMA	DGSVRTQ	QQYSRLPLS	En_Gibbs	-0.05	6 of 6	3 of 18
HLSGLMTWESKAKNSVA	QSNTRAE	QQYHRLPLS	En_HC	0.96	6 of 6	0 of 18
SLYEVSEELSGKKHSVA	DNSTRGD	QQYFRLPLD	En_Gen	2.26	6 of 6	1 of 18
ILYDHVGTLSRNKNSVA	DNSTRES	QQYDRLPLS	En_HC	2.26	5 of 6	1 of 18

The 11 strongest on average among those seen in every replicate, once more:

CDR-L1	CDR-L2	CDR-L3	group	log10 Kd (nM), mean	replicates with signal	control signals
KLQQSFLYEERNPNSVA	NASKREL	QQYHRLPLS	GP_Gibbs	-0.26	6 of 6	2 of 18
KLEQSVMLESRNVNAVA	SASQREL	QQYHRLPLS	GP_Gibbs	-0.18	6 of 6	0 of 18
KLSMSQLYEWRNFNSVA	NASTREE	QQYHRLPLS	GP_Gibbs	-0.17	6 of 6	5 of 18
KVSQEQDYQSRNKNSVA	DASQREE	QQYHRLPLS	GP_Gibbs	-0.17	6 of 6	3 of 18
QIDSFYQHGTDQKKAMA	DGSVRTQ	QQYSRLPLS	En_Gibbs	-0.05	6 of 6	3 of 18
KIGMTLNQLMHTKNNVA	DLVTREN	QQYHRLPLS	En_Gen	-0.04	6 of 6	0 of 18
NISQMFYMETKNVNNVA	QTSTRES	QDYHRLPLS	En_HC	-0.01	6 of 6	1 of 18
KLSQSDLYESRNSNNVA	MASTRMV	QQYHRLPLS	GP_Gibbs	0.00	6 of 6	0 of 18
KESQSELYESANKNSVA	NAMQRMS	QQYHRLPLS	GP_Gibbs	0.06	6 of 6	0 of 18
MLALPQKELGYAKKAIA	DGSIRAG	QQYHLLPLS	En_Gibbs	0.12	6 of 6	0 of 18
ILYQSQLYESRNKNSVA	QASQREM	QQYHRLPLS	GP_Gibbs	0.16	6 of 6	2 of 18

Source: Li et al. 2023 (doi:10.1038/s41467-023-39022-2), MIT Lincoln Laboratory and A-Alpha Bio; data file from the FLAb repository.